Assay results reported in patent US20090306126A1, “Indole Derivatives” (ASTRAZENECA AB, priority 2006, published 2009).

Amino acid sequences for entries named in this document (tags omitted).
UniProt P42336, whole entry: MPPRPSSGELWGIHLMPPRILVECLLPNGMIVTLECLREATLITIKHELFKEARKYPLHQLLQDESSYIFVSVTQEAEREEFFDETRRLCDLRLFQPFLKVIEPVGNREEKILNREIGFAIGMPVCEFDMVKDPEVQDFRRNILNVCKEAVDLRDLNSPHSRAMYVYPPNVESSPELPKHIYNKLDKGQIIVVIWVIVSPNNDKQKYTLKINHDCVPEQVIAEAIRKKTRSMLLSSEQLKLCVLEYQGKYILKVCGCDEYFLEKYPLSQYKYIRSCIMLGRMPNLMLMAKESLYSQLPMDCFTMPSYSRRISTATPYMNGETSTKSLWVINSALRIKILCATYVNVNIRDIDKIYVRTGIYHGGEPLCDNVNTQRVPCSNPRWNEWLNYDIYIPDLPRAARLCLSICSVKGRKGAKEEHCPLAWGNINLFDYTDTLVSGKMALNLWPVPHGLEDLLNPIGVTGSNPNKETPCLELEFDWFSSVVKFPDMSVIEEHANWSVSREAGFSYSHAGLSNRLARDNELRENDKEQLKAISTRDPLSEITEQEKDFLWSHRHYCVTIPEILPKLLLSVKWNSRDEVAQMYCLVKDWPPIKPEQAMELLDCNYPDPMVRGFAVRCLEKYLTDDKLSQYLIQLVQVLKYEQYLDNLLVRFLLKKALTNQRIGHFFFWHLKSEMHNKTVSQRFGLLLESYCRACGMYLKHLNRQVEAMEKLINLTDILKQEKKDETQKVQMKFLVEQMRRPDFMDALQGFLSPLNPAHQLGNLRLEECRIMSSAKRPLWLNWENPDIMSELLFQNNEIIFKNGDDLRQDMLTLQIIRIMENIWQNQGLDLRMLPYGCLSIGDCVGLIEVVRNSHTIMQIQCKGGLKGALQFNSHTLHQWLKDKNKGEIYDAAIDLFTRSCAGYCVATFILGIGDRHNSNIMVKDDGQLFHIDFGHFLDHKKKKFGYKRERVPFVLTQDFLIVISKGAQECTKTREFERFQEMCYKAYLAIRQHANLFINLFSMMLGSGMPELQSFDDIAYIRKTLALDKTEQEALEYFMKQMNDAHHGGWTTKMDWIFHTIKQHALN
UniProt P27986, whole entry partner: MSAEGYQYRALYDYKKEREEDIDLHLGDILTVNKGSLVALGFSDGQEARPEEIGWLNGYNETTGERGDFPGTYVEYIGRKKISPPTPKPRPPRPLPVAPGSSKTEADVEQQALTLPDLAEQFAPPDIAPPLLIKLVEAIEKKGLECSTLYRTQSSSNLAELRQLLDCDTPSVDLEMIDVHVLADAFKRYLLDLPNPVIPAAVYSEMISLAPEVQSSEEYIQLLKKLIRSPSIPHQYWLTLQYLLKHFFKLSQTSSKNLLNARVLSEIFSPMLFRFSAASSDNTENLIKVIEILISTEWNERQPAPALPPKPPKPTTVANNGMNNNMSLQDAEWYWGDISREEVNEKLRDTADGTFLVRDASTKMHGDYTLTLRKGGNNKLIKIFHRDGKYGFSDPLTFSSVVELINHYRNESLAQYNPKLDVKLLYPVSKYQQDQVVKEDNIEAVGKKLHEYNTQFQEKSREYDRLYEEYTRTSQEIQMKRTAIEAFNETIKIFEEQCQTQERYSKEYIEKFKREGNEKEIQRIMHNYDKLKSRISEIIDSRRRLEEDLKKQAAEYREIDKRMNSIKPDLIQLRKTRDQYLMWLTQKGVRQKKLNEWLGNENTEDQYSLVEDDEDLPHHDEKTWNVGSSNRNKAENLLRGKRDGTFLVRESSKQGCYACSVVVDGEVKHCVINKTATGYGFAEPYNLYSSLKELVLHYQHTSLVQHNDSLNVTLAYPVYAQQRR

Columns and labels:
p110α Type Ia human PI3K = p110α Type Ia human PI3K (Homo sapiens, UniProt P42336); assay: In vitro PI3K enzyme assay (AlphaScreen), Test (a); type: biochemical; conditions: read-out: IC50 versus p110α Type Ia human PI3K, recombinant enzyme, ATP 4 μM
[1] = tested on: phosphorylation of Serine 473 in Akt; assay: In vitro phospho-Ser473 Akt assay in MDA-MB-468 cells, Test (c); type: cell-based, human; conditions: read-out: IC50, inhibition of phosphorylation of Serine 473 in Akt, 2 hours

SMILES | IC50 (p110α Type Ia human PI3K) | IC50 [1]
O=S(=O)(CC(F)(F)F)Nc1cc(-c2cnc3[nH]ccc3c2)cnc1Cl | 500 nM | 17000 nM
Cc1nc(C)c(S(=O)(=O)Nc2cc(-c3cnc4[nH]ccc4c3)cnc2Cl)s1 | 100 nM | 2000 nM
